This test concerns Jurkat NF-kB reporter, luminescence. The test can be described thus: Jurkat NF-kB signaling inhibitors – cell-based, luminescence, selectivity assay for B-cell receptor NF-kB inhibitor project, dose response (AID 489006).

In PubChem BioAssay AID489006 (Sanford-Burnham Center for Chemical Genomics, 2010) one finds IC50 data, which are given here for one compound.

In general, IC50 refers to the point on the concentration scale where inhibition reaches its midpoint.

As for `CNC(=O)c1cc(Oc2ccc(NC(=O)Nc3ccc(Cl)c(C(F)(F)F)c3)cc2)ccn1`, the 50% inhibitory concentration (IC50) was 13.4 µM.
